The assay addresses Met kinase (Homo sapiens, UniProt P08581). The experiment in a line: Met kinase inhibition, cell assay. In kind it is cell-based.

By UniProt entry, the sequences of proteins in these tests, tags left out. Residues count along the entry.
UniProt P08581, 25-1390: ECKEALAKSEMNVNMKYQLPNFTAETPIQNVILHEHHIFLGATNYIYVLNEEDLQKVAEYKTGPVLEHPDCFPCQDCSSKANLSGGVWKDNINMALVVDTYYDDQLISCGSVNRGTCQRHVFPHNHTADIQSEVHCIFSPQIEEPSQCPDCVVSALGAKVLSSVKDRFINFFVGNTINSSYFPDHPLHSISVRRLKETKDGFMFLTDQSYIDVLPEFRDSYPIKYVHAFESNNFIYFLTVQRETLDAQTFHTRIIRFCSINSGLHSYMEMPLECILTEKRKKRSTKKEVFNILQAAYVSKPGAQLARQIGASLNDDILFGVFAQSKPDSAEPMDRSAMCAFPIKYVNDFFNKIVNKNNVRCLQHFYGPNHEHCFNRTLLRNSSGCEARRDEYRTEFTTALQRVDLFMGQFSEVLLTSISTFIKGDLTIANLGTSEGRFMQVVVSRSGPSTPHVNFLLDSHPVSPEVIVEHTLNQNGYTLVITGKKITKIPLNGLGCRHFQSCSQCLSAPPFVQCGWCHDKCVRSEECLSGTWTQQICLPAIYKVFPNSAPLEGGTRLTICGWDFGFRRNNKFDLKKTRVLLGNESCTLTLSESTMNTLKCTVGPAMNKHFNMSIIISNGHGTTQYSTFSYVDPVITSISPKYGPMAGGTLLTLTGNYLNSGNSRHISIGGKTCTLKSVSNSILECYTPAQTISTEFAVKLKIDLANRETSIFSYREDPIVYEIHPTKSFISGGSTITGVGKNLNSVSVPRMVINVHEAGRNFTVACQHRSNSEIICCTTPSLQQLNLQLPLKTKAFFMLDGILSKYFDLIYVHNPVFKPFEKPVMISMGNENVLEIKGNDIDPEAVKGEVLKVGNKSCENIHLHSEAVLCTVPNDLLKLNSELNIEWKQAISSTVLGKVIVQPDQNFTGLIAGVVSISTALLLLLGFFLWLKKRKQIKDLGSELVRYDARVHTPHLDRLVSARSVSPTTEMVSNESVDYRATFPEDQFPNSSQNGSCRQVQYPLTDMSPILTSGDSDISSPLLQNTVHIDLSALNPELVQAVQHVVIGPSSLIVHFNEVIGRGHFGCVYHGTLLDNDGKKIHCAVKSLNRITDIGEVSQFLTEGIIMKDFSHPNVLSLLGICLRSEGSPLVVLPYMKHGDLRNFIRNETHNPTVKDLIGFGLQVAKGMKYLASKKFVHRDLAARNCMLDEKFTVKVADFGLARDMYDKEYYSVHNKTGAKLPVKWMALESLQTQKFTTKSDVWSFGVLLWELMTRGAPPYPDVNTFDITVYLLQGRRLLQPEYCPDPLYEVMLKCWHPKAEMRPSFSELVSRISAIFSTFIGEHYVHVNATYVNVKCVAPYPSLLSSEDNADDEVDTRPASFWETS

Molecule `Cc1ccc(-c2cccc(Cn3nc(-c4cc(F)cc(F)c4)ccc3=O)c2)nc1` showed a concentration for half-maximal inhibition (IC50) of 0.001 to 1 µM.

The values above are taken from US9284300B2 (dated 2016).
